Laboratory results taken from patent publication US8648045B2, “VDAC1 compositions and methods of use thereof for regulating apoptosis” (Ben Gurion University of the Negev Research and Development …, priority 2005, dated 2014).

Assays:
[1] = system: U937 cells; experiment: HK-I over-expression protection against apoptotic cell death in double-transfected cells; type: cell-based, human
Experimental: U937 cells were transfected with pcDNA3.1-HisA or pcDNA3.1-HisA-HK-I (neomycin resistance; provided by Dr. J. E. Wilson, University of Michigan) by electroporation, and grown in complete RPMI 1640 with neomycin ([…]). After 12 days, the selected cells were transfected with pEGFP, pEGFP-mVDAC1 or pEGFP-E72Q-mVDAC1 and were grown in the presence of neomycin ([…]). The viability of double-transfected cells was analyzed during 48 to 76 hr.
To determine cell viability, cells were stained with 100 μg/ml acridine orange (AcOr) and 100 μg/ml ethidium bromide (EtBr) in PBS. Cells were centrifuged at 1500×g for 5 min at room temperature and resuspended in 25 μl of complete medium, to which 2 μl of AcOr/EtBr solution were added. The cells were then visualized by fluorescence microscopy (Olympus IX51) and images were recorded on an Olympus DP70 camera, using a SWB filter.
The effect of HK-I over-expression on apoptotic cell death of the GFP-tagged version of native and E72Q-mVDAC1 over-expressing cells was examined. Cells were first transformed to over-express HK-I and then transfected with native mVDAC1-GFP or E72Q-mVDAC1-GFP. […]

[2] = system: U937 cells; experiment: Apoptotic cell death of U937 cells transfected with native or mutated mVDAC1, with/without RuR (acridine orange/ethidium bromide staining); type: cell-based, human
Experimental: Logarithmically-growing U937 cells were resuspended in RPMI 1640 supplemented with 10% FCS, 100 U/ml penicillin and […] streptomycin at a concentration of 2.5×10^7 cells/ml. Cells were transfected to express rat or murine VDAC1 using the vectors pEGFP, pEGFP-VDAC1, pEGFP-E72Q-mVDAC1, pE-mVDAC1 or pE-E72Q-mVDAC1. Transfection of the U937 cells was performed by electroporation with a single pulse from a Bio-Rad micropulser II with a capacitance extender unit (200 V, […]). Cells were incubated on ice for 10 min before and after transfection, and then resuspended in 20 ml of RPMI 1640 supplemented with 10% FCS, 1 mM l-glutamine, 100 U/ml penicillin and […] streptomycin. Transfection efficiencies were 68-72%, as assessed by GFP expression. GFP-positive cells were viewed under a microscope using a blue filter.
Cells were plated at a density of 5.4×10^4 cells/cm^2 in 24-well plates, washed once with PBS and placed in serum-free medium. Cells were then incubated with or without RuR or Ru360. Cells were also treated with […] staurosporine (STS) to induce apoptosis and analyzed for viability 3, 5 and 7 hrs after STS addition. Treatments with curcumin (120 μM) or As2O3 (20 μM) were carried out for 48 hrs.
To determine cell viability, cells were stained with 100 μg/ml acridine orange (AcOr) and 100 μg/ml ethidium bromide (EtBr) in PBS. […] The cells were then visualized by fluorescence microscopy (Olympus IX51) and images were recorded on an Olympus DP70 camera, using a SWB filter.
To further investigate the relationship between the protective effect of RuR and its interaction with VDAC1, leukemic U937 cells were transfected with a plasmid encoding native, E65Q, E72Q, K73L, or D77N-mVDAC1 variant. Fifty six (56) hr after transfection, cells were exposed for 20 hr to RuR (1 μM) and cell viability was analyzed using acridine orange/ethidium bromide staining. In each independent experiment, approximately 250 cells were counted for each including early and late apoptotic cells. […]

B1: native mVDAC1: mouse VDAC1, native, over-expressed from plasmid (protein)
chain: MAVPPTYADLGKSARDVFTKGYGFGLIKLDLKTKSENGLEFTSSGSANTETTKVNGSLETKYRWTEYGLTFTEKWNTDNTLGTEITVEDQLARGLKLTFDSSFSPNTGKKNAKIKTGYKREHINLGCDVDFDIAGPSIRGALVLGYEGWLAGYQMNFETSKSRVTQSNFAVGYKTDEFQLHTNVNDGTEFGGSIYQKVNKKLETAVNLAWTAGNSNTRFGIAAKYQVDPDACFSAKVNNSSLIGLGYTQTLKPGIKLTLSALLDGKNVNAGGHKLGLGLEFQA
- level of apoptosis in cells over-expressing HK-I ([1]; U937 cells first transformed to over-express HK-I): < 10%
- protective effect of HK-I over-expression against cell death induced by mVDAC1 over-expression ([1]; U937 or T-Rex 293 cells stably over-expressing HK-I, mVDAC1-GFP constructs): dramatically reduced

B2: mVDAC-GFP: GFP-tagged native mouse VDAC1 expressed in transfected cells (protein)
chain: B1 chain
modifications: left off: large carriers
notes: GFP-tagged native mouse VDAC1 expressed in transfected cells
- % of protection ([2]; protection by RuR (1 μM) against apoptosis of transfected U937 cells): 65%
- Apoptotic cells, % −RuR ([2]; transfected U937 cells, without RuR, mean±SEM (n=3)): 69.6 ± 2.7%
- Apoptotic cells, % +RuR ([2]; transfected U937 cells, 56 hr after transfection exposed 20 hr to RuR (1 μM), mean±SEM (n=3)): 24.7 ± 2.2%
